The values below come from patent US8304223B2, “Isoforms of pig liver esterase” (Enzymicals AG, priority 2007, dated 2012).

The target of one test is T1, PLE 1 (γ-PLE) (Sus scrofa, UniProt Q29550).
T1 construct: made in house; host or cells: E. coli Origami (DE3) with pGro7 (GroEL/GroES coexpression), crude extract
T1 sequence (Q29550 with tags, fused parts or gaps): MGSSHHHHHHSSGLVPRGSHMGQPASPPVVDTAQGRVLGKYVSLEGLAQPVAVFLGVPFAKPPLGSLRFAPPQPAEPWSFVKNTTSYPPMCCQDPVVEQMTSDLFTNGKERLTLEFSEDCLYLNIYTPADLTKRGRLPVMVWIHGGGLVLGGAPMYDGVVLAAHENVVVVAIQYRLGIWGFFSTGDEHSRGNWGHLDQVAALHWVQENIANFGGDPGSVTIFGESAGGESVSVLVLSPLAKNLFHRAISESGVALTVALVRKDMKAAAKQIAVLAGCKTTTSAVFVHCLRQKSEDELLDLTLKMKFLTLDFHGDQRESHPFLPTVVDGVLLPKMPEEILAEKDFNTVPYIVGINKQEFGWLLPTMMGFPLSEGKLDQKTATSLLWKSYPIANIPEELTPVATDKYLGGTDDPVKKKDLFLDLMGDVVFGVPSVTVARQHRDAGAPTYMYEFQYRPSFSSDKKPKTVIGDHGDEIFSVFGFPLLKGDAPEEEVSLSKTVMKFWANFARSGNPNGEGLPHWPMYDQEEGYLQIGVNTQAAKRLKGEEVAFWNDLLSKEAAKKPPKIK
It counts as biochemical, pig. The settings on record: inhibitor 0.01 mM, 25° C. The procedure:
(§1) Esterase activity was determined spectrophotometrically in sodium phosphate buffer (50 mM) by means of p-nitrophenyl acetate (10 mM, dissolved in dimethyl sulfoxide) as substrate. The amount of p-nitrophenol generated was determined at a wavelength of 410 nm (ε=15*10^3 M^−1 cm^−1) at RT and pH 7.5. 1 unit (U) is defined as the amount of enzyme capable of converting 1 μM p-nitrophenol per minute under analytical conditions (Krebsfänger, N., et. al., (1998) Enzyme Microb. Technol, 22, 641-646).
(§2) The inhibitability of the new PLE variants was determined by treating the crude extracts with any of three esterase inhibitors. […] Samples were taken at certain points in time and the remaining esterase activity was determined by the pNPA assay.

For a further test, the target named is T2, PLE 2 (Sus scrofa, UniProt Q29550, F477A/K481R/L479F).
T2 construct: made in house; host or cells: E. coli Origami (DE3) with pGro7 (GroEL/GroES coexpression), crude extract
T2 sequence (Q29550 19-562 F477A/L479F/K481R): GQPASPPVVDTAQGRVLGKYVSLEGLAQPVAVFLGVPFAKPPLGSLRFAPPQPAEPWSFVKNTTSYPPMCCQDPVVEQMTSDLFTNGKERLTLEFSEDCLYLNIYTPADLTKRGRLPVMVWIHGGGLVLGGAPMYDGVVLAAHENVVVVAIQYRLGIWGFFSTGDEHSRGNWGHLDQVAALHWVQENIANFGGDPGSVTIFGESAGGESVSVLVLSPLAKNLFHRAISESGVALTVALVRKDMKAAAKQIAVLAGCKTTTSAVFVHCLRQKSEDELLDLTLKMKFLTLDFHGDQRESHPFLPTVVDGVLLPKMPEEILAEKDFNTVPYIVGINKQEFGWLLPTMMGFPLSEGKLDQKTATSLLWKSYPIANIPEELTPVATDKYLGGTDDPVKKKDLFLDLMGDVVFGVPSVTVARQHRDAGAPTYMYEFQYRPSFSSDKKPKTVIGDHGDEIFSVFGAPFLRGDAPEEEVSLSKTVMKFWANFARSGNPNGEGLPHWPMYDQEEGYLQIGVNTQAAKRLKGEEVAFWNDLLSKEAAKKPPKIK
In kind it is biochemical, pig. The settings on record: inhibitor 0.01 mM, 25° C. The procedure:
as §1, §2

Like-named read-outs stand apart in the source and are kept apart here.

Take `O=S(=O)(F)Cc1ccccc1` [Phenylmethylsulfonyl fluoride (PMSF), phenylmethylsulfonyl fluoride]: the “Remaining activity in %” value on PLE 1 (γ-PLE) (1 min) is 97%; at PLE 1 (γ-PLE) (5 min) it was 85%; at PLE 1 (γ-PLE) (30 min) it was 55%; on PLE 1 (γ-PLE) (60 min) it was 46%; at PLE 2 (1 min), 87%; on PLE 2 (5 min), 82%. Further, the “Remaining activity in %” value on PLE 2 (30 min) is reported as 50%; on PLE 2 (60 min), 36%.
